# Experimental data reported in published antibiotic growth screens (doi:10.1038/s41589-023-01349-8).
# The list shows a part of the results.
# System: A. baumannii ATCC 17978
# Assay: relative growth (fraction of control); higher = less inhibition
# Details: 50 µM
row,Compound,relative growth
1,O=C(C[C@@H]1CC[C@@H]2[C@H](COC[C@@H](O)CN2S(=O)(=O)c2ccc(F)cc2)O1)NCCN1CCCCC1,0.988
2,Cc1cccc(C)c1OCC(C)N.Cl (stereo unspecified),1.1
3,O=C(NCC(F)(F)F)[C@@H]1c2ccccc2C(=O)N(Cc2cc(C(F)(F)F)cc(C(F)(F)F)c2)[C@H]1c1ccc(CO)cc1,0.985
4,O=C(CCCCCNC(=O)OCc1ccc(CN(C(=O)Nc2ccccc2)[C@@H](Cc2ccccc2)Cn2cc(-c3ccccn3)nn2)cc1)NO,0.94
5,Nc1nonc1/C(=N/O)N1CCCCC1,0.99
6,CC(C)NC(=O)N(C)C[C@H]1Oc2cc(C#Cc3ccc(F)cc3)ccc2S(=O)(=O)N([C@@H](C)CO)C[C@@H]1C,1.06
7,O=C(CN1CCOCC1)NCC[C@H]1CC[C@@H](NS(=O)(=O)c2ccc(F)cc2)[C@@H](CO)O1,1.11
8,C[C@H](NC(=O)C[C@H]1C=C[C@@H](NC(=O)CN2CCOCC2)[C@@H](CO)O1)c1ccccc1,0.989
9,O=C(NCCCN1CCOCC1)C(=O)NC1CC1,1
10,O=C(C[C@H]1CC[C@@H](NC(=O)Nc2ccc3c(c2)OCO3)[C@H](CO)O1)NCCCN1CCOCC1,0.928
11,O=P(O)(O)C(O)(Cn1ccnc1)P(=O)(O)O,0.927
12,C[n+]1cc2c3c(ccc2c2ccc4cc5c(cc4c21)OCO5)OCO3.[Cl-],0.828
13,Cc1ccc(C)c(Cc2cc(Cl)ccc2Cl)c1,1.1
14,CC(C)(CO)[C@@H](O)C(=O)NCCC(=O)O,0.93
15,O=C(C[C@@H]1CC[C@@H](NC(=O)Cc2ccccn2)[C@@H](CO)O1)NCCCN1CCOCC1,1.02
16,O=C(N[C@@H]1CC=CC[C@H](CC(=O)N(CCO)Cc2ccccc2)C(=O)NC[C@H](c2ccccc2)OC1=O)OCC1c2ccccc2-c2ccccc21,1.1
17,C[C@]12CCC3c4ccc(O)cc4CCC3C1CCC2=O (stereo partly specified),1.07
18,CCOC(=O)c1c(C)cc(OC)cc1O,1.19
19,O=C(CCBr)N1CCN(C(=O)CCBr)CC1,1.19
20,N[C@H]1CONC1=O,0.933
21,CCCCC1C(=O)N(c2ccccc2)N(c2ccc(O)cc2)C1=O (stereo unspecified),1.03

row,Compound,relative growth
1,CCN1CCC[C@@H]1CNC(=O)c1cc(S(N)(=O)=O)ccc1OC,1.02
2,CCCc1nc(C)c2c(=O)[nH]c(-c3cc(S(=O)(=O)N4CCN(CC)CC4)ccc3OCC)nn12.Cl,1.22
3,Fc1ccc(-c2nc3ccc4ccccc4c3c3c2CCC3)cc1,1.15
4,COc1cc(OC)c2ccc(=O)oc2c1,0.768
5,COc1ccc(C#Cc2ccc3c(c2)[C@]2(C(=O)N3)[C@H](C(=O)N3CCc4cc(OC)c(OC)cc4C3)[C@H]3C(=O)O[C@H](c4ccccc4)[C@H](c4ccccc4)N3[C@@H]2c2ccccc2OCCO)cc1,1.22
6,CC(N)O.Cc1cc(CC(C)CC(C)(C)C)n(O)c(=O)c1 (stereo unspecified),0.152
7,CO[C@@H]1CN(C)C(=O)c2ccc(NC(=O)C3CCOCC3)cc2OC[C@H](C)N(Cc2cccnc2)C[C@H]1C,1.23
8,CN(C)CCCN1c2ccccc2CCc2ccc(Cl)cc21.Cl,1.1
9,CC(=O)Nc1ccc(OC(=O)c2ccccc2O)cc1,1.26
10,Cc1c(C(N)=O)sc2[nH]cnc(=O)c12,1.02
11,Cc1ccc2c(c1)/C(=C/c1ccncc1)c1cc3ccccc3nc1-2,1.2
12,CO[C@H]1CN(C)C(=O)c2cc(NC(=O)C3CCOCC3)ccc2OC[C@@H](C)N(Cc2cccnc2)C[C@H]1C,1.12
13,O=c1c(O)c(-c2ccc(O)cc2)oc2cc(O)cc(O)c12,0.958
14,CNC(=O)C[C@H]1CC[C@H]2[C@@H](COC[C@@H](O)CN2C(=O)c2ccccn2)O1,0.908
15,CN1CCN(S(=O)(=O)c2ccc(CN)cc2)CC1,1.04
16,O=c1cn[nH]c(Nc2ccccc2)n1,0.91
17,COc1ccccc1CN1C(=O)c2ccccc2[C@@]2(Cc3ccccc3N(C3CC3)C2=O)[C@@H]1c1ccc(CO)cc1,0.915
18,CC(C)[N+]1(C)C2CC[C@H]1C[C@@H](OC(=O)C(CO)c1ccccc1)C2.[Br-] (stereo partly specified),0.996
19,O=C(Cn1ccc([N+](=O)[O-])n1)Nc1cccnc1,1.09
20,O=C(C[C@H]1CC[C@@H]2[C@H](COC[C@H](O)CN2C(=O)Nc2ccc(Cl)c(Cl)c2)O1)NCc1ccc(Cl)c(Cl)c1,0.925
21,CCCNC(=O)NS(=O)(=O)c1ccc(Cl)cc1,1.3

row,Compound,relative growth
1,C[C@@H]1CN([C@H](C)CO)S(=O)(=O)c2ccc(-c3ccc(C#N)cc3)cc2O[C@@H]1CN(C)C(=O)CN(C)C,1.02
2,O=C(O)C[C@H]1CC[C@H]2[C@@H](COC[C@@H](O)CN2S(=O)(=O)c2ccc(F)cc2)O1,0.899
3,CCCCCCOC(=O)/N=C(\N)c1ccc(NCc2nc3cc(C(=O)N(CCC(=O)OCC)c4ccccn4)ccc3n2C)cc1.CS(=O)(=O)O,1.07
4,O=C(O)CN(CCN(CC(=O)O)CC(=O)O)CC(=O)O,0.984
5,OCCC12CC3CC(CC(C3)C1)C2,0.936
6,C[C@@H]1CN([C@H](C)CO)S(=O)(=O)c2ccc(Br)cc2O[C@H]1CN(C)Cc1cccc(C(=O)O)c1,0.962
7,CC(CN1c2ccccc2Sc2ccccc21)N(C)C.Cl (stereo unspecified),0.995
8,NC(=O)CNC(=O)c1cccc(Cl)c1,0.988
9,CCCCC(CC)COC(=O)CC(C(=O)OCC(CC)CCCC)S(=O)(=O)[O-].[Na+] (stereo unspecified),1.14
10,CC/N=C1\S[C@@H](CC(=O)NC)C(=O)N1CC,1.09
11,Fc1cccc(CSCc2c(F)cccc2Cl)c1,0.954
12,COCC(=O)Nc1ccc2c(c1)C(=O)N(C)C[C@@H](OC)[C@@H](C)CN(Cc1ccccc1OC)[C@@H](C)CO2,0.917
13,O=C(O)c1cnc(N2CCCC2)nc1,0.972
14,NC(=O)C[C@H](N)C(=O)O,0.955
15,CO/N=C(/C(=O)NC1C(=O)N2C(C(=O)[O-])=C(COC(N)=O)CSC12)c1ccco1.[Na+] (stereo unspecified),0.197
16,Cc1cc(-c2ccc3ccccc3n2)nc2ccc3ccccc3c12,0.91
17,CCC(NC(C)C)C(O)c1ccc(O)c(O)c1.CS(=O)(=O)O (stereo unspecified),0.965
18,C/C=C/c1ccc2c(c1)O[C@H](CN(C)Cc1ccc(C(=O)O)cc1)[C@H](C)CN([C@H](C)CO)S2(=O)=O,0.954
19,CO[C@H]1CN(C)C(=O)c2ccc(NC(=O)c3ccc(F)cc3)cc2OC[C@H](C)N(C(=O)CN(C)C)C[C@@H]1C,1.11
